Source: PubChem BioAssay AID951 (NMMLSC, 2007)
Only a part is listed here, and it is no random draw. Calls of active or inactive are those of the source. Cut-off read from the data, not from the text of the source: active = inhibition above about 40%.

Sequences of proteins named here, by UniProt entry; tags and fusion partners are left off. A change or cut given only in a name is not applied to a line headed by its entry.
UniProt Q9HD36: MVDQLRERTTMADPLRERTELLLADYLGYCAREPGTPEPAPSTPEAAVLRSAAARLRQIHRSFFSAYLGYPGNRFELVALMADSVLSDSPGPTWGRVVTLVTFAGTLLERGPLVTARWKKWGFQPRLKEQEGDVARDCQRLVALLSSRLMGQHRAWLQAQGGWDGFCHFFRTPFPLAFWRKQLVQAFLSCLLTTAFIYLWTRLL

These molecules were tested against Bcl-2-like protein 10 (Homo sapiens) (UniProt Q9HD36) (assay: Bcl-B and Bim peptide interaction disruptors – biochemical, multiplexed, human Bcl-2 family, primary screen (AID 951;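 note: 0% = tracer peptide without compound and 100% = reference inhibitor peptide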)). Conditions: bead-based flow cytometry, Bim peptide-Bcl-B binding; at 10 µM; stronger effect = higher value.
In the case of `CCN(N=Nc1nonc1N)c1nonc1N`, the inhibition is reported as inactive: -6%. For `CCOP(=O)(Nc1ccccc1)OCC`, the inhibition was inactive: -1%. For `Cc1cc(SC(NC(=O)c2ccc(F)cc2)C(Cl)(Cl)Cl)ncn1` (centres undefined), the inhibition was inactive: -33%. For `Cc1c2non([O-])c-2c(C)[n+](=O)[n+]1[O-]`, the inhibition was inactive: 0%. `O=C(NC(Sc1ccncn1)C(Cl)(Cl)Cl)c1ccccc1` (centres undefined) was tested, and the inhibition was inactive: -21%. For `Oc1ccccc1CNc1ccccn1`, the inhibition was inactive: -11%. With `CC(C)CC(=O)NC(Sc1ccc(Cl)cc1)C(Cl)(Cl)Cl` (centres undefined) the inhibition was inactive: -6%. In the case of `Cc1ccc(N/C(=N/P(=O)(N2CCOCC2)N2CCOCC2)N2CCOCC2)cc1`, the inhibition is reported as inactive: 0%. With `NC(=O)c1cc([N+](=O)[O-])cc([N+](=O)[O-])c1N` the inhibition was inactive: 0%. For `Clc1ccc(Cl)c(NC2=NCC(CBr)S2)c1` (centres undefined), the inhibition was inactive: -12%. `CN1CCCC(OC(=O)C(c2ccccc2)c2ccccc2)C1` (centres undefined) was tested, and the inhibition was inactive: -2%. `COc1ccccc1OP(=O)(Nc1ccc(C)cn1)Oc1ccccc1OC` was tested, and the inhibition was inactive: -1%. In the case of `CCN(/C(=N/P(=O)(N1CCOCC1)N1CCOCC1)N1CCOCC1)c1ccc(OC)cc1`, the inhibition is reported as inactive: -2%. For `CC1CCN(C(=O)Oc2c(Cl)cc(Cl)c3cccnc23)CC1`, the inhibition was inactive: -3%. `CN(C)C(=O)OCCc1n(C)cc[n+]1C` was tested, and the inhibition was inactive: -10%. In the case of `CC(C)=N/N=C(\N)N[N+](=O)[O-]`, the inhibition is reported as inactive: -13%. With `COc1ccc(C2=NCC(CBr)S2)cc1` (centres undefined) the inhibition was inactive: -7%. With `CCc1nc2c(n1)c1c(non1O)c1c2no[n+]1[O-]` the inhibition was inactive: 18%. `O=[N+]([O-])c1cc([N+](=O)[O-])c(CCNc2ccccc2)c([N+](=O)[O-])c1` was tested, and the inhibition was inactive: 4%. `Cc1ccc(NP(=O)(Oc2ccccc2)Oc2ccccc2)nc1` was tested, and the inhibition was inactive: -2%. With `O=[N+]([O-])c1cccc2n[nH]nc12` the inhibition was inactive: -11%. In the case of `CC(=O)N1C2C3N(C(C)=O)C1C1N(C(C)=O)C(C(N1C(C)=O)N3C(C)=O)N2C(C)=O`, the inhibition is reported as inactive: -2%. `O=[N+]([O-])c1ncn(CCn2ncnc2[N+](=O)[O-])n1` was tested, and the inhibition was inactive: 0%. For `CC(=O)NC(SC(=S)N(C)C)C(Cl)(Cl)Cl` (centres undefined), the inhibition was inactive: -12%. In the case of `O=C(OC1CN2CCC1CC2)c1cccc(Cl)c1` (centres undefined), the inhibition is reported as inactive: 0%. With `C(Cc1nn[nH]n1)Cc1nn[nH]n1` the inhibition was inactive: -1%. `O=P(Nc1ccccn1)(c1ccc(Br)cc1)c1ccc(Br)cc1` was tested, and the inhibition was inactive: -2%. With `CC(C)C(=O)NC(Sc1ccccc1)C(Cl)(Cl)Cl` (centres undefined) the inhibition was inactive: -13%. In the case of `O=P(Nc1nccs1)(c1ccccc1)c1ccccc1`, the inhibition is reported as inactive: -7%. In the case of `c1nnnn1CCn1cnnn1`, the inhibition is reported as inactive: -7%. With `CC(=O)Nc1ccc(Oc2c([N+](=O)[O-])cc([N+](=O)[O-])cc2[N+](=O)[O-])cc1` the inhibition was inactive: 3%. With `CCOc1ccc(C2=NCC(CBr)S2)cc1` (centres undefined) the inhibition was inactive: 0%. With `O=P1(Nc2nc3ccc(Cl)cc3s2)COc2ccccc2O1` (centres undefined) the inhibition was inactive: -5%. `CC(C)(C)C(=O)NC(Sc1ccccc1)C(Cl)(Cl)Cl` (centres undefined) was tested, and the inhibition was inactive: -2%. `CCC(=O)N1C2C3N(C(=O)CC)C1C1N(C(=O)CC)C(C(N1C(=O)CC)N3C(=O)CC)N2C(=O)CC` was tested, and the inhibition was inactive: 4%. `Cc1ccc(OP(=O)(Nc2ccccn2)Oc2ccc(C)cc2)cc1` was tested, and the inhibition was inactive: 0%. For `CC(=O)NC(SC(=S)N(CC(C)C)CC(C)C)C(Cl)(Cl)Cl` (centres undefined), the inhibition was inactive: -5%. With `COC(=O)c1cc2c(s1)N=C(c1ccccc1)N(C)P2(=O)N1CCOCC1` (centres undefined) the inhibition was inactive: -1%. `O=c1c2cc([N+](=O)[O-])ccc2[nH]c2c([N+](=O)[O-])cc([N+](=O)[O-])cc12` was tested, and the inhibition was inactive: -3%. `CCOC(=O)NC(Sc1ccccc1)C(Cl)(Cl)Cl` (centres undefined) was tested, and the inhibition was inactive: -6%. `c1ccc(-c2nn[nH]n2)c(-c2nn[nH]n2)c1` was tested, and the inhibition was inactive: 1%. In the case of `CCNC(=S)/N=C(\N)N[N+](=O)[O-]`, the inhibition is reported as inactive: -1%. For `O=C(NC1CCS(=O)(=O)C1)NP(=S)(Oc1ccccc1)Oc1ccccc1` (centres undefined), the inhibition was inactive: -9%. `CCOP1(=S)c2c(C)nn(CCC#N)c2N=C(c2ccc(F)cc2)N1C` (centres undefined) was tested, and the inhibition was inactive: -8%. With `O=[N+]([O-])c1ccc2c(c1)nnn2O` the inhibition was inactive: -3%. With `O=P(Nc1nccs1)(c1ccccc1)c1nc2ccccc2s1` (centres undefined) the inhibition was inactive: -6%. For `O=P(Nc1nccs1)(Oc1ccccc1)Oc1ccccc1`, the inhibition was inactive: -2%. For `CCOP1(=S)c2c(C)nn(CCC#N)c2N=C(c2ccccc2F)N1C` (centres undefined), the inhibition was inactive: -10%. In the case of `Cc1ccc(NCCc2c([N+](=O)[O-])cc([N+](=O)[O-])cc2[N+](=O)[O-])cc1`, the inhibition is reported as inactive: -3%. In the case of `CCOP(=O)(Nc1cccc2ccccc12)OCC`, the inhibition is reported as inactive: -6%. With `COc1cc(C2NCCC3(OCCO3)C2(C)C)cc(OC)c1OC` (centres undefined) the inhibition was inactive: 5%. With `COc1cc(C(=O)NCC2(N3CCOCC3)CCCCC2)cc(Cl)c1OC(C)C` the inhibition was inactive: -6%. With `Cc1cccc(OCC(=O)OC2CN3CCC2CC3)c1` (centres undefined) the inhibition was inactive: 0%. For `CC(C)/C=N\N=C(\N)N[N+](=O)[O-]`, the inhibition was inactive: 0%. `CN(C(=O)Cc1ccc(Cl)c(Cl)c1)[C@@H]1CCCC[C@H]1N1CCCC1` was tested, and the inhibition was inactive: 0%. With `O=P1(Nc2ccccn2)COc2ccccc2OC1` the inhibition was inactive: -9%. For `Clc1n[nH]nc1-c1nn[nH][15n]1`, the inhibition was inactive: -10%. In the case of `O=P1(Nc2ncccn2)COc2ccccc2OC1`, the inhibition is reported as inactive: -1%. In the case of `O=P1(Nc2ccc(Br)cn2)COc2ccccc2OC1`, the inhibition is reported as inactive: -6%. For `Cc1ccc(OCC(=O)OC2CN3CCC2CC3)cc1` (centres undefined), the inhibition was inactive: -7%. For `CC1CCC(C(C)C)C(OP(=O)(Nc2ccccn2)c2ccccc2)C1` (centres undefined), the inhibition was inactive: -5%. In the case of `Cc1nn(-c2ccccc2)c2c1P(=O)(N1CCOCC1)N(C)C(c1ccccc1)=N2` (centres undefined), the inhibition is reported as inactive: 1%. With `CN(C)C1(CNC(=O)c2ccc(S(C)(=O)=O)cc2)CCCCC1` the inhibition was inactive: 1%. `O=P(Nc1ccccn1)(c1cccc2ccccc12)c1cccc2ccccc12` was tested, and the inhibition was inactive: -5%. With `Cc1cc(SC(NC=O)C(Cl)(Cl)Cl)ncn1` (centres undefined) the inhibition was inactive: -24%. In the case of `Cc1cc(SC(NC(=O)c2ccccc2)C(Cl)(Cl)Cl)nc(C(C)C)n1` (centres undefined), the inhibition is reported as inactive: -24%. For `CCC(C)N(CC(C)C)C(=S)SC(NC(C)=O)C(Cl)(Cl)Cl` (centres undefined), the inhibition was inactive: -3%. `COP1(=S)c2c(C)nn(CCC#N)c2N=C(c2ccc(F)cc2)N1C` (centres undefined) was tested, and the inhibition was inactive: -7%. For `O=C(COc1ccccc1)OC1CN2CCC1CC2` (centres undefined), the inhibition was inactive: 1%. For `COc1ccc(N/C(=N/P(=O)(N2CCOCC2)N2CCOCC2)N2CCOCC2)cc1`, the inhibition was inactive: -6%. With `Cc1c2c(nc3ccccc13)SC(C(Cl)Cl)C2` (centres undefined) the inhibition was inactive: -2%. `Cc1cc(=O)[nH]c(N[N+](=O)[O-])n1` was tested, and the inhibition was inactive: -1%. In the case of `O=C(OC1CN2CCC1CC2)C12CC3CC(CC(C3)C1)C2` (centres undefined), the inhibition is reported as inactive: -7%. `COc1ccc2nc(NP(=O)(c3ccccc3)c3ccccc3)sc2c1` was tested, and the inhibition was inactive: -2%. In the case of `ClCCSc1nnc(-c2cccnc2)o1`, the inhibition is reported as inactive: -8%. With `O=[N+]([O-])c1cc([N+](=O)[O-])c(-c2ccn[nH]2)s1` the inhibition was inactive: -21%. With `CCN(CC)C(=S)SC(NC=O)C(Cl)(Cl)Cl` (centres undefined) the inhibition was inactive: -7%. For `CC(C)NC(=O)NP(=O)(Oc1ccccc1)Oc1ccccc1`, the inhibition was inactive: -4%. In the case of `Cc1ccc2nc3c(c(C)c2c1)CC(C(Cl)Cl)S3` (centres undefined), the inhibition is reported as inactive: -8%.
